The experiment concerns Chinese hamster V79 cells. Nature of the experiment: Radiotoxicity in cultured mammalian cells (colony survival). Type of experiment: cell-based. The source says:
This radiopharmaceutical localizes predominantly in the bone where it emits short-range conversion and Auger electrons. […] The highest concentration of ^117mSn are found in the vicinity of bone metastases. Accordingly, it is of interest to explore the potential of ^117mSn(Sn^4+)DTPA as an agent to sterilize bone metastases. The present study examines the radiotoxicity of composition of the invention when incorporated into cultured mammalian cells.
Chinese hamster V79 cells were suspended in culture medium containing various concentrations of ^117mSn(Sn^4+)DTPA for 14 h and then washed free of all extracellular radioactivity. The cells were then resuspended in fresh culture medium and maintained at 10.5° C. on a rocker-roller for 72 h. Cells were then washed again, serially diluted, and seeded into culture dishes. After 1 week the colonies were stained and counted, the surviving fraction compared to unlabeled controls was determined.
Cellular uptake of ^117mSn was linearly dependent on the extracellular concentration of ^117mSn(Sn^4+)DTPA. […] When the survival fraction was plotted as a function of cellular uptake of radioactivity, an exponential response reminiscent of high-LET type radiation emerged. The cellular uptake required to achieve 37% survival was 0.95 mBq/cell. Cellular dosimetry calculations indicate that this corresponds to a mean lethal dose D37 of 0.76 Gy. […] Therefore, the relative biological effectiveness of ^117mSn(Sn^4+)DTPA compared to P-32 orthophosphate is 9.3 in these controlled experiments, but can be expected to be as much as 20 or more in the final clinical application, depending upon the tumor burden of the patient.

As for “^117mSn (Sn^4+) diethylenetriaminepentaacetic acid (DTPA) [^117mSn(Sn^4+)DTPA]”, the “mean lethal dose D37” value (V79 cells, cellular dosimetry calculations) is 0.76 Gy. In addition, where the note is “controlled experiments in V79 cells”, the “relative biological effectiveness compared to P-32 orthophosphate” value worked out at 9.3. Moreover, the “relative biological effectiveness compared to P-32 orthophosphate, expected” value (final clinical application, depending upon the tumor burden of the patient) is listed as not below 20.

The record behind these values is patent US6541514B2, “Process for the manufacture of 117Sn diethylenetriaminepentaacetic acids” (Brookhaven Science Associates, LLC, priority 2001, dated 2003).
